From US20060276412A1, “METHODS AND COMPOSITIONS FOR MANAGING PSYCHOTIC DISORDERS” (priority 2005, published 2006)

Legend:
Format in all cases: in vivo, rats
Details in all cases: 3 mg/kg ziprasidone
[1] = tested on: serotonin (5HT) in medial prefrontal cortex; assay: Brain microdialysis: serotonin in mPFC
Source text: (§1) 62 adult Sprague-Dawley male rats (Harland, Indianapolis) weighing 300-350 g were used in the following studies. The rats were quarantined for at least five days in group housing. Following the quarantine procedure, rats were maintained in individual cages. For surgical implantation with intracerebral guides, guides were inserted directly above either the hypothalamus (HT) (31 rats), or the medial prefrontal cortex (mPFC) (31 rats). Stereotaxic coordinates (Paxinos and Watson, 1986) provided below were used to position the guide cannulae and/or probes: Animals were anesthetiszed according using standard procedures. The head of each animal was shaved from the front of the eyes to the back of the skull. Shaved areas were disinfected, and the animals were placed in stereotaxic frame ear bars. The animal was aligned with the incisor bar. The animal's scalp was cut with a sharp #15 scalpel blade. If the bone began to bleed, bone wax was applied to the incision. Periosteal tissue was cleaned from the skull to the lateral ridges with a cotton swab, and clamps were used to pull the skin out of the way. The probe or guide was placed in the clamp, such that the angled outlet cannula of the microdialysis probe was angled towards the animal's tail. The target coordinates were calculated, and this point was marked on the skull. Two holes in opposing skull bones were drilled for bone anchor screws and thread screws. The dura was torn away with a sharp, pointed object. The guide cannulae were placed at the dorsal/ventral zero point. […] Using dental acrylic, the cannulae were cemented to the bone anchor screws. The cement was allowed to harden and the rodent was removed from the stereotaxic frame. The cranial and caudal aspects of the incision were sutured. The animals were allowed to recover for three to five days. Stylets in the guides were replaced with dialysis probes on the evening prior to study to allow for animal acclimation and to reestablish the integrity of the blood brain barrier. […] Rats were weighed pre-surgery, every 1-2 days post-surgery until time of microdialysis, and postmortem. Microdialysis probes used in the experiments described below were first soaked in standard Ringer's perfusion medium for 30 minutes. Inlet and outlet tubing was connected to each probe using flanged connectors. The outlet tubing was connected to a fraction collector, and the inlet was connected to and […] syringe drive. The probes were immersed in fresh Ringer's solution and flushed with Ringer's perfusion medium at a rate of 2 μl/min for 1 hour. The probe was then transferred to the intracerebral guide on the rat's skull. […] Water was added to obtain a final concentration of 0.3 mg/ml. Ziprasidone was administered to rats at a final concentration of 3 mg/kg intraperitoneally. 1.2 ml of water was added to a single vial of GEODON® (containing 20 mg ziprasidone and 4.7 mg methanesulfonic acid solubilized by 294 mg of sulfobutylether b-cyclodextrin sodium). Water was added to obtain a final concentration of 3 mg/ml ziprasidone. Zonisamide was administered to rats in a final concentration of 25 mg/kg intraperitoneally in a vehicle of 13.4% EtOH, 20.1% propylene glycol, 66.5% saline. Zonisamide was dissolved in DMSO. […] The final concentration of zonisamide was 7.5 mg/ml. The drug solution was maintained at 37° C. prior to injection. The rats were divided into ten test groups. Five animals were analyzed for each test group. The test groups were as follows: For the microdialysis experiments, perfusion consisted of 2 μl/min delivery of sterile standard Ringer's solution for intervals of 20 minutes. Final collection volumes were 40 μl. 30 μl samples were analyzed for each analyte: DA, NE, 5HT. 12 pre-dose samples and 12 post dose samples were collected every 20 minutes for a duration of 4 hours, both pre-dose and post-dose. Six samples from the pre-dose and post-dose collections were analyzed for norepinephrine. […]

[2] = tested on: norepinephrine (NE) in medial prefrontal cortex; assay: Brain microdialysis: norepinephrine in mPFC
Source text: as §1

[3] = tested on: dopamine (DA) in hypothalamus; assay: Brain microdialysis: dopamine in hypothalamus
Source text: as §1

[4] = tested on: norepinephrine (NE) in hypothalamus; assay: Brain microdialysis: norepinephrine in hypothalamus
Source text: as §1

[5] = tested on: serotonin (5HT) in hypothalamus; assay: Brain microdialysis: serotonin in hypothalamus
Source text: as §1

[6] = tested on: dopamine (DA) in medial prefrontal cortex; assay: Brain microdialysis: dopamine in mPFC
Source text: as §1

SMILES: O=C1Cc2cc(CCN3CCN(c4nsc5ccccc45)CC3)c(Cl)cc2N1 [ziprasidone]
- Serotonin concentrations in mPFC ([1]; 3 HOUR AVE): 88.108 % baseline
- Serotonin concentrations in mPFC ([1]; 40 min post dose): 100.119 % baseline
- Serotonin concentrations in mPFC ([1]; 80 min post dose): 80.736 % baseline
- Serotonin concentrations in mPFC ([1]; 120 min post dose): 80.678 % baseline
- Serotonin concentrations in mPFC ([1]; 160 min post dose): 76.032 % baseline
- Serotonin concentrations in mPFC ([1]; 200 min post dose): 96.412 % baseline
- Serotonin concentrations in mPFC ([1]; 240 min post dose): 82.843 % baseline
- Serotonin concentrations in mPFC ([1]; -20 min pre dose): 103.695 % baseline
- Serotonin concentrations in mPFC ([1]; -60 min pre dose): 101.254 % baseline
- Serotonin concentrations in mPFC ([1]; -100 min pre dose): 95.050 % baseline
- Norepinephrine concentrations in mPFC ([2]; 3 HOUR AVE): 140.23 % baseline
- Norepinephrine concentrations in mPFC ([2]; 20 min post dose): 152.679 % baseline
- Norepinephrine concentrations in mPFC ([2]; 60 min post dose): 173.477 % baseline
- Norepinephrine concentrations in mPFC ([2]; 100 min post dose): 139.468 % baseline
- Norepinephrine concentrations in mPFC ([2]; 140 min post dose): 135.555 % baseline
- Norepinephrine concentrations in mPFC ([2]; 180 min post dose): 120.130 % baseline
- Norepinephrine concentrations in mPFC ([2]; 220 min post dose): 120.068 % baseline
- Norepinephrine concentrations in mPFC ([2]; -40 min pre dose): 102.187 % baseline
- Norepinephrine concentrations in mPFC ([2]; -80 min pre dose): 96.063 % baseline
- Norepinephrine concentrations in mPFC ([2]; -120 min pre dose): 101.750 % baseline
- Dopamine concentrations in hypothalamus ([3]; 3 HOUR AVE): 122.276 % baseline
- Dopamine concentrations in hypothalamus ([3]; 40 min post dose): 155.264 % baseline
- Dopamine concentrations in hypothalamus ([3]; 80 min post dose): 133.547 % baseline
- Dopamine concentrations in hypothalamus ([3]; 120 min post dose): 119.303 % baseline
- Dopamine concentrations in hypothalamus ([3]; 160 min post dose): 108.156 % baseline
- Dopamine concentrations in hypothalamus ([3]; 200 min post dose): 114.436 % baseline
- Dopamine concentrations in hypothalamus ([3]; 240 min post dose): 96.372 % baseline
- Dopamine concentrations in hypothalamus ([3]; -20 min pre dose): 96.640 % baseline
- Dopamine concentrations in hypothalamus ([3]; -60 min pre dose): 110.026 % baseline
- Dopamine concentrations in hypothalamus ([3]; -100 min pre dose): 93.334 % baseline
- Norepinephrine concentrations in hypothalamus ([4]; 3 HOUR AVE): 182.01 % baseline
- Norepinephrine concentrations in hypothalamus ([4]; 20 min post dose): 221.458 % baseline
- Norepinephrine concentrations in hypothalamus ([4]; 60 min post dose): 286.925 % baseline
- Norepinephrine concentrations in hypothalamus ([4]; 100 min post dose): 186.090 % baseline
- Norepinephrine concentrations in hypothalamus ([4]; 140 min post dose): 130.369 % baseline
- Norepinephrine concentrations in hypothalamus ([4]; 180 min post dose): 123.480 % baseline
- Norepinephrine concentrations in hypothalamus ([4]; 220 min post dose): 115.795 % baseline
- Norepinephrine concentrations in hypothalamus ([4]; -40 min pre dose): 110.416 % baseline
- Norepinephrine concentrations in hypothalamus ([4]; -80 min pre dose): 95.746 % baseline
- Norepinephrine concentrations in hypothalamus ([4]; -120 min pre dose): 93.838 % baseline
- Serotonin concentrations in hypothalamus ([5]; 3 HOUR AVE): 122.083 % baseline
- Serotonin concentrations in hypothalamus ([5]; 40 min post dose): 147.484 % baseline
- Serotonin concentrations in hypothalamus ([5]; 80 min post dose): 131.609 % baseline
- Serotonin concentrations in hypothalamus ([5]; 120 min post dose): 122.447 % baseline
- Serotonin concentrations in hypothalamus ([5]; 160 min post dose): 127.006 % baseline
- Serotonin concentrations in hypothalamus ([5]; 200 min post dose): 140.594 % baseline
- Serotonin concentrations in hypothalamus ([5]; +220 min post dose): 88.071 % baseline
- Serotonin concentrations in hypothalamus ([5]; -20 min pre dose): 105.804 % baseline
- Serotonin concentrations in hypothalamus ([5]; -60 min pre dose): 109.552 % baseline
- Serotonin concentrations in hypothalamus ([5]; -100 min pre dose): 84.644 % baseline
- Dopamine concentrations in mPFC ([6]; 3 HOUR AVE): 180.798 % baseline
- Dopamine concentrations in mPFC ([6]; 40 min post dose): 224.637 % baseline
- Dopamine concentrations in mPFC ([6]; 80 min post dose): 220.406 % baseline
- Dopamine concentrations in mPFC ([6]; 120 min post dose): 204.006 % baseline
- Dopamine concentrations in mPFC ([6]; 160 min post dose): 155.426 % baseline
- Dopamine concentrations in mPFC ([6]; 200 min post dose): 144.584 % baseline
- Dopamine concentrations in mPFC ([6]; 240 min post dose): 109.557 % baseline
- Dopamine concentrations in mPFC ([6]; -20 min pre dose): 105.629 % baseline
- Dopamine concentrations in mPFC ([6]; -60 min pre dose): 88.131 % baseline
- Dopamine concentrations in mPFC ([6]; -100 min pre dose): 106.240 % baseline
